Test results taken from patent US7563809B2, “Nociceptin analogs” (dated 2009).

Sequences of proteins named here, by UniProt entry; tags and fusion partners are left off. A change or cut given only in a name is not applied to a line headed by its entry.
UniProt P41146: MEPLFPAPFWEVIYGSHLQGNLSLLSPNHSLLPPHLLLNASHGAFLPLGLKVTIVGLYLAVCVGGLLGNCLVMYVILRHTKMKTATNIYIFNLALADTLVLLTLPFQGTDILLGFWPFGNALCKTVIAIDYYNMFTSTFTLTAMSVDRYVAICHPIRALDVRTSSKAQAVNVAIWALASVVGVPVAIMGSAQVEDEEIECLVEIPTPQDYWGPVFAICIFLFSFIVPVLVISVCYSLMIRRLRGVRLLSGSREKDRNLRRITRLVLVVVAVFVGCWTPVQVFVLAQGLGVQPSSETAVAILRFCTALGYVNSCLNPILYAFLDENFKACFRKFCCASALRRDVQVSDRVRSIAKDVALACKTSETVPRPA
UniProt P35372: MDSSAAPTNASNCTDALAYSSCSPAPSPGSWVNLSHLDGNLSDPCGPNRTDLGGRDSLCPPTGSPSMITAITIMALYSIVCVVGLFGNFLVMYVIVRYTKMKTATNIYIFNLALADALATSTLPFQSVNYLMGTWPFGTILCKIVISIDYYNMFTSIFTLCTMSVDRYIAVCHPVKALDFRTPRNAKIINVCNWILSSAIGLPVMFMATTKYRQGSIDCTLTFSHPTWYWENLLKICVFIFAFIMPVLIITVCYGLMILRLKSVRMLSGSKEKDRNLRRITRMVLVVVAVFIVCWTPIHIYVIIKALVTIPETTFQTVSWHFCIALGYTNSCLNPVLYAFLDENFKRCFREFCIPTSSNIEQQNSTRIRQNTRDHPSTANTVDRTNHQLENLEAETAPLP

Assays:
[1] = target: human opioid receptor-like receptor (ORL-1) (Homo sapiens, UniProt P41146); experiment: Nociceptin affinity at the ORL1 receptor ([35S]GTPgS binding, membranes of recombinant HEK-293 cells); conditions: read-out: Nociceptin Affinity calc Ki; Table 1; ORL-1 membranes from recombinant HEK-293 cells; benzothiadiazole/benzothiadiazine series
[2] = target: Mu opioid receptor (Homo sapiens, UniProt P35372); experiment: Affinity at the μ receptor ([35S]GTPγS binding, membranes); conditions: read-out: Mu Receptor Affinity calc Ki, Table 3

Substance	Ki [1] [nM]	Ki [2] [nM]
1-[1-(1,2,3,4-tetrahydronaphthyl)-4-piperidinyl]-2,1,3-benzothiadiazin-2,2-dione	2610	–
1-[1-(1,3-dihydroinden-2-yl)-4-piperidinyl]-2,1,3-benzothiadiazin-2,2-dione	46	660
1-[1-(3,3-Bis(phenyl)propyl)-4-piperidinyl]-2,1,3-benzothiadiazin-2,2-dione	83	–
1-[1-(4-propylcyclohexyl)-4-piperidinyl]-2,1,3-benzothiadiazin-2,2-dione	231	–
1-[1-(5-methylhex-2-yl)-4-piperidinyl]-2,1,3-benzothiadiazin-2,2-dione	40	–
1-[1-(10,11-Dihydro-5H-dibenzo[a,d]-cyclohepten-5-yl)-4-piperidinyl]-2,1,3-benzothiadiazin-2,2-dione	505	–
1-[1-(benzyl)-4-piperidinyl]-2,1,3-benzothiadiazin-2,2-dione	3900	–
1-[1-(cyclooctyl)-4-piperidinyl]-2,1,3-benzothiadiazin-2,2-dione	187	1380
1-[1-(decahydro-2-naphthyl)-4-piperidinyl]-2,1,3-benzothiadiazin-2,2-dione	28.7	91.7
1-[1-(naphth-2-yl-methyl)-4-piperidinyl]-2,1,3-benzothiadiazin-2,2-dione	609	–
1-[1-(norbornan-2-yl)-4-piperidinyl]-2,1,3-benzothiadiazin-2,2-dione	6330	–
1-[1-(p-benzyloxybenzyl)-4-piperidinyl]-2,1,3-benzothiadiazin-2,2-dione	1880	–
1-[1-(p-phenylbenzyl)-4-piperidinyl]-2,1,3-benzothiadiazin-2,2-dione	9540	–
1-[1-[4-(2-propyl)-cyclohexyl]-4-piperidinyl]-2,1,3-benzothiadiazin-2,2-dione	35.3	207
3-acetamido-1-[1-[4-(2-propyl)-cyclohexyl]-4-piperidinyl]-2,1,3-benzothiadiazin-2,2-dione	3.9	–
